# Measured affinities in a library of Ab-91 heavy chain variants

Binding partner: SARS-CoV-2 spike HR2 peptide, sequence PDVDLGDISGINAS.

Each scFv is VL, the linker GGGGSGGGGSGGGGS, VH, as in the parent Ab-91, and differs from it in the CDRs of the heavy chain only.
VL: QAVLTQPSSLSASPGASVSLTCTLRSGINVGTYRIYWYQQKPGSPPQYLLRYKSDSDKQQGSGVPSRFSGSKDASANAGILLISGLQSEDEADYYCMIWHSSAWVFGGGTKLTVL
VH: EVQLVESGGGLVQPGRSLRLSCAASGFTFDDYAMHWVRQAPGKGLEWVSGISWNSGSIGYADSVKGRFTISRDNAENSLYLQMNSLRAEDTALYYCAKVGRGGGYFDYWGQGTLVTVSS

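Phage display of a naive human antibody library on the peptide gave the parent. The library (AAYL51) carries one to three amino acid substitutions per variant, with no insertions or deletions. In AlphaSeq, yeast of one mating type display the scFv and yeast of the other type display the target. Binding brings cells together so that they mate, and sequencing counts the barcode pairs among the diploids. A regression on co-assayed BCL2-family reference pairs converts the normalised counts of each replicate to an apparent Kd. Each pool was mated in three replicate cultures.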

Variants are written as CDR1, CDR2 and CDR3 of the heavy chain (limits as in the source). Parent: GFTFDDYAMH, GISWNSGSIGYADSVK, VGRGGGYFDY.
Values are log10 of the apparent Kd in nM; lower means stronger binding.
Replicates are averaged; those with no signal do not enter the mean.
An entry "nd" has no value in the source: the pair was not observed among the diploids in any replicate. This suggests poor binding but is not conclusive.
For reference, the parent read 1.86 as the reference entry and 0.88 as a member of this library.
Empty control strains, which show no peptide, gave a signal in 21% of pairings with library AAYL51; the median was 4.54 and 95% of these signals were weaker than 3.26. No background was subtracted.

| # | CDR-H1 | CDR-H2 | CDR-H3 | mean log10 Kd (nM) | detected |
|---|---|---|---|---|---|
| 1 | GFFFDDYAME | GISWNSGSIGYADSVK | VGRGGGYFDR | 3.84 | 2 of 3 |
| 2 | GRTFDDYAMH | GISWNSGSIGYADSVK | VGRGGGYSDI | nd | 0 of 3 |
| 3 | WFTFIDYAMH | GISWNSGSIGYADSVK | VGRGGGYFDY | 3.99 | 1 of 3 |
| 4 | FFTFDDYAHH | GISWNSGKIGYADSVK | VGRGGGYFDY | 5.52 | 1 of 3 |
| 5 | GFTFDGYAMY | GWSWNSGSIGYADSVK | VGRGGGYFDY | nd | 0 of 3 |
| 6 | GFTFDDYAMH | GISWNNGSIGYWDSVK | VGRGGGCFDY | nd | 0 of 3 |
| 7 | GFTFDDYAMH | GISWNSKSIGYADSVK | VGHGGPYFDY | 2.27 | 3 of 3 |
| 8 | AFTFDDYAMH | GTSWNSGKIGYADSVK | VGRGGGYFDY | 3.92 | 1 of 3 |
| 9 | GFTFDDYAMH | GISWVSGSIGYHDSVK | VGRGGGYFCY | 4.23 | 1 of 3 |
| 10 | GFTFEDYAMH | GISWNSGSKGYADSVK | VGRGSGYFDY | 3.92 | 3 of 3 |
| 11 | WFTVDDYAMH | GISWNSGSIGYADSVK | VGRGGKYFDY | 4.42 | 1 of 3 |
| 12 | GFFFDDYAMH | GISCNSGSIGYADSDK | VGRGGGYFDY | 4.39 | 1 of 3 |
| 13 | GFTFDDYADH | GISWNSGSIGYADSVK | VGFGGGYFDY | 4.52 | 3 of 3 |
| 14 | GLTFDDYAMH | GISWNSGSIGYADSVK | VGRGRGHFDY | 3.85 | 2 of 3 |
| 15 | GFTFDDYAMH | GIIWNSGSIGYADSVK | VGRGGDYFTY | nd | 0 of 3 |
| 16 | NFTFDDYAMH | GISWNSGSIGSADSVK | VGRGGGYFDV | 3.28 | 3 of 3 |
| 17 | GFTFDDYAMH | GISWFSGSIQYADSVK | VLRGGGYFDY | nd | 0 of 3 |
| 18 | GFTFCDYAMH | CLSWNSGSIGYADSVK | VGRGGGYFDY | 4.76 | 2 of 3 |
| 19 | GFTFDDYAMH | GISWNSWSIGYADSVK | VGCCGGYFDY | 4.17 | 1 of 3 |
| 20 | GFTFDDYAMH | GISWKSGSIGYADVVK | VGRGGGYFIY | nd | 0 of 3 |
| 21 | GFTFDDYAMH | MISWNSGSIGYADEVK | VGRGGGYFYY | 4.83 | 1 of 3 |
| 22 | GFTFDDYAMH | GISWNSGSIGYAKSVK | VGRGGGYPMY | 3.59 | 3 of 3 |
| 23 | MFTFDDYAMH | DISWNSGSIGYADSTK | VGRGGGYFDY | nd | 0 of 3 |
| 24 | GFTFDDYAMH | GISWNSGSIGYADSWK | VGDGGGVFDY | 4.41 | 1 of 3 |
| 25 | GFTFDDYAMH | GISWNSGSIGYADSVK | VGRGGGENDY | 4.93 | 3 of 3 |
| 26 | GFTFDDYAMF | GISWNSGSIGYTDSVK | VGRGGGYFHY | 4.38 | 2 of 3 |
| 27 | GFTFDDYAMH | GISWTSGSIGSADSVK | VGRGGGTFDY | nd | 0 of 3 |
| 28 | GFTFDDYAMH | GISWNSGSIGFFDSVK | VGRGGGYADY | nd | 0 of 3 |
| 29 | GFTFDDYAMH | GISWNSGSIGYADSVK | VGTGGGYYHY | nd | 0 of 3 |
| 30 | HFMFDDYAMH | GISWNSGSIGYADSVK | VGRGGGYDDY | nd | 0 of 3 |
| 31 | GFRFDDYAMH | GISWRSGSIGYADSVK | VGRSGGYFDY | 5.37 | 2 of 3 |
| 32 | KFTFDDYAMH | GISWKSGSIGYADSVK | VGDGGGYFDY | nd | 0 of 3 |
| 33 | GFTFDDYAMP | GISWNPGSIGYADSGK | VGRGGGYFDY | nd | 0 of 3 |
| 34 | GFTFDDYAMC | GIWWNSGSIGYADSVK | VGRGGGYTDY | nd | 0 of 3 |
| 35 | GFTFDDYAMH | GISWNSGSIYYNDSVK | VGRGGGYFDE | 4.22 | 2 of 3 |
| 36 | GFTFDDLAMH | GVSWNSGSIGYADMVK | VGRGGGYFDY | nd | 0 of 3 |
| 37 | GWTFDDYAMH | GISWNSGSIGYADSVK | VARPGGYFDY | 4.80 | 1 of 3 |

The remaining entries, values ahead:

| # | mean log10 Kd (nM) | detected | CDR-H1 | CDR-H2 | CDR-H3 |
|---|---|---|---|---|---|
| 38 | 5.57 | 2 of 3 | GFTFDDYAMH | GISWNSGSKAYADSVK | VGRGGGQFDY |
| 39 | nd | 0 of 3 | GFTFDDYAMH | GISWNMGSIDYADSVK | VGRGSGYFDY |
| 40 | 4.89 | 3 of 3 | GFFYDDYAMH | GISWNSGSIGYADSVK | VGRGGGYFDF |
| 41 | 3.75 | 2 of 3 | VDTTDDYAMH | GISWNSGSIGYADSVK | VGRGGGYFDY |
| 42 | nd | 0 of 3 | GFTFDDYAGH | GISWNSLSIGYADSVK | VGRGGGYEDY |
| 43 | 4.38 | 2 of 3 | GFTEDDYAMH | GISWNSGSIGYADSVK | WGRGGGYFDI |
| 44 | 4.48 | 3 of 3 | GFTFDDYAMH | GISWNSGSIGYADSVK | VGRMCGYWDY |
| 45 | 4.14 | 2 of 3 | GFTIDDYAMH | GISWNSVSIGYADSVK | VGRGGGAFDY |
| 46 | 2.66 | 3 of 3 | GFTFDDYAMH | GISWNSDSVGYADAVK | VGRGGGYFDY |
| 47 | 3.01 | 3 of 3 | GPTFDDYAMH | GISWNSGSIGYADSVK | VGRGGAYFLY |
| 48 | 3.09 | 1 of 3 | GFCFDDYAMH | GISWNSGSNGYADSVK | VGRGCGYFDY |
| 49 | 1.99 | 3 of 3 | GFQFDDYAMH | GISWNSGSIGYAMEVK | VGRGGGYFDY |
| 50 | 4.07 | 1 of 3 | GFLFDDYAMH | GISWYSGSIGYADSVK | VGRGGGYFDM |
| 51 | 5.29 | 2 of 3 | GFTFDDYAQH | GISWNSGSIGYADSVK | VGRGGGDFPY |
| 52 | 3.84 | 3 of 3 | GFTFDDYAMH | GISWMSGSCGYADSVK | VGRGGGYFDY |
| 53 | nd | 0 of 3 | GFQFDDYAMH | GISWNSGSIGYADSVK | VGYGGGYFPY |
| 54 | 3.87 | 1 of 3 | GFTFCDYAMH | GISWNSGMIVYADSVK | VGRGGGYFDY |
| 55 | nd | 0 of 3 | GFTFDDYAMH | GFSWNQGSIGPADSVK | VGRGGGYFDY |
| 56 | 3.96 | 2 of 3 | GFTFDDMAMH | GISWNSGSIGYADSVF | VPRGGGYFDY |
| 57 | nd | 0 of 3 | GYTFDDYAMH | GISWNSGSIGYADSVK | VCRWGGYFDY |
| 58 | 4.90 | 1 of 3 | GFTFDDYAMG | GYSWNSGSIGYASSVK | VGRGGGYFDY |
| 59 | 4.67 | 2 of 3 | GFTFDDYCMH | GISWNSGSIEYADSVK | VGRGGGYFDM |
| 60 | nd | 0 of 3 | GFTVDKYAMH | GISWNSGSIGYADSRK | VGRGGGYFDY |
| 61 | 4.91 | 1 of 3 | GFTFDDYAMH | GIIWNSGSIGRADSVK | VGRGGDYFDY |
| 62 | nd | 0 of 3 | GRTFDDYAMH | EISWNSGSIGYADSVR | VGRGGGYFDY |
| 63 | nd | 0 of 3 | GFTFDDYAMH | EISWNSGSIGYADSVK | VYRGTGYFDY |
| 64 | nd | 0 of 3 | YFTFDDYAMH | GISWNSGSIIYADSVK | VGRGVGYFDY |
| 65 | nd | 0 of 3 | GFTFDDYAMH | GVSWNSVSIGYADSVK | VGRGPGYFDY |
| 66 | nd | 0 of 3 | GFTSDDYAMH | GISWNSGSIGLADSVK | VGRGGGYFDT |
| 67 | 2.58 | 3 of 3 | GFTFDDYAMH | GISWNSGSIGYAPSVK | VGRGGPKFDY |
| 68 | 1.95 | 3 of 3 | GFTFDFYAMH | GISWNSGSIGYADSVK | SGRGGGYFDY |
| 69 | nd | 0 of 3 | GDTFDDYAMH | GISWNSGSIGYADSVK | HGRMGGYFDY |
| 70 | 4.75 | 2 of 3 | GFTFDDYAMH | QGSWNFGSIGYADSVK | VGRGGGYFDY |
| 71 | 1.72 | 3 of 3 | GFTFDRYAMH | GISLNSGSIGYADSVK | VGRGGGNFDY |
| 72 | 4.04 | 1 of 3 | GFTFDDYAMH | GIEWVSGSIGYADSVK | VGRGGGYFDY |
| 73 | 5.46 | 2 of 3 | GFTFDDYAMH | AISWNSGSIAYADSVK | VGVGGGYFDY |
| 74 | nd | 0 of 3 | GSTFDDYAMH | GISWNSGKIGNADSVK | VGRGGGYFDY |
| 75 | 4.57 | 2 of 3 | GFLFDDYAMH | GSSWNSGSIGPADSVK | VGRGGGYFDY |

The measurements come from Engelhart et al. 2022 (doi:10.1038/s41597-022-01779-4) through the FLAb antibody collection.